{
  "sequences": {"note": "The chains behind the UniProt entries cited, without tags or fusion partners.", "UniProt P20272, whole entry": "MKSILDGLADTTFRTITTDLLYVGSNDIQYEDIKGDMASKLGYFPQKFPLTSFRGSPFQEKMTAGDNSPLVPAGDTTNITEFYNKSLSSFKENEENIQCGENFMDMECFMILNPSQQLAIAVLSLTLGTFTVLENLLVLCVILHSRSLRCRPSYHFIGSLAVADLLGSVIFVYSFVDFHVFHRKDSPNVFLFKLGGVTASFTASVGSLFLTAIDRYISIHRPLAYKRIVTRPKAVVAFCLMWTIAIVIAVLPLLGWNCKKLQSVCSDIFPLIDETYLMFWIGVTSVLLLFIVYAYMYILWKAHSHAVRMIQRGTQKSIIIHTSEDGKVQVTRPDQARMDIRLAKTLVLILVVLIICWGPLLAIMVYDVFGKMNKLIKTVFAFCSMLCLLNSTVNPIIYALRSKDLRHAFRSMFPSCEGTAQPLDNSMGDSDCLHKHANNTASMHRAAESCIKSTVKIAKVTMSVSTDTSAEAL"},
  "source": "paper PMC12163822",
  "about": "“Synthesis and Pharmacological Characterization of a Novel Cannabinoid Receptor 1 Antagonist” (ACS Omega, 2025)",
  "key": {"[1]": {"molecular_target": "CB1 receptor (Rattus norvegicus, UniProt P20272)", "assay": "[3H]CP55,940 receptor autoradiography in rat brain slices", "format": "binding, Sprague-Dawley rat", "set-up": "fresh frozen sections from brain samples from wild-type; from tissue; host or cells: Sprague-Dawley rat brain sections", "conditions": "3 nM [3H]CP55,940 in the presence of compound 10 µM", "description": "(§1) All brain sections were air-dried for 30 min and later immersed in Coplin jars for preincubation in a buffer containing 50 mM Tris–HCl and 1% of BSA (pH 7.4) for 30 min at room temperature. The objective of this preincubation was to remove endogenous ligands. […] Following incubation, tissue slices were washed with an ice-cold preincubation buffer, dipped in distilled water, and dried overnight. To generate autoradiograms, dry sections were placed in hermetically closed cassettes and exposed to β-radiation-sensitive films for 21 days at 4 °C. To calibrate the optical densities to fmol/mg tissue equivalent, [^3H]-microscales were exposed to the films. To quantify the calibrated films after scanning, Fiji software (Bethesda, […], USA) was used."}, "[2]": {"molecular_target": "T1, CB1 receptor (Mus musculus, UniProt P47746)", "T1 construct": "fresh frozen sections from brain samples from wild-type; from tissue; host or cells: Swiss mouse brain sections", "assay": "[3H]CP55,940 receptor autoradiography in mouse brain slices", "format": "binding, Swiss mice", "conditions": "3 nM [3H]CP55,940 in the presence of compound 10 µM", "description": "as §1"}, "[3]": {"conditions": "nucleus basalis magnocellularis"}},
  "data": [
    {"smiles": "Cc1c(C(=O)NN2CCCCC2)nn(-c2ccc(Cl)cc2Cl)c1-c1ccc(Cl)cc1.Cl", "note": "[SR141716A, 5-(4-Chlorophenyl)-1-(2,4-dichlorophenyl)-4-methyl-N-1-piperidinyl-1H-pyrazole-3-carboxamide hydrochloride, reference compound]", "values": [
      {"measurement": "[3H]CP55,940 binding", "setting": "[1]; amygdala", "value": "79 ± 18", "unit": "fmol/mg t.e."},
      {"measurement": "[3H]CP55,940 binding", "setting": "[1]; cerebellum (gray matter)", "value": "72 ± 23", "unit": "fmol/mg t.e."},
      {"measurement": "[3H]CP55,940 binding", "setting": "[1]; cortex", "value": "66 ± 14", "unit": "fmol/mg t.e."},
      {"measurement": "[3H]CP55,940 binding", "setting": "[1]; globus pallidus", "value": "77 ± 15", "unit": "fmol/mg t.e."},
      {"measurement": "[3H]CP55,940 binding", "setting": "[1]; hippocampus dorsal", "value": "62 ± 10", "unit": "fmol/mg t.e."},
      {"measurement": "[3H]CP55,940 binding", "setting": "[1]; [3]", "value": "80 ± 11", "unit": "fmol/mg t.e."},
      {"measurement": "[3H]CP55,940 binding", "setting": "[1]; striatum", "value": "79 ± 25", "unit": "fmol/mg t.e."},
      {"measurement": "[3H]CP55,940 binding", "setting": "[1]; substantia nigra", "value": "70 ± 14", "unit": "fmol/mg t.e."},
      {"measurement": "[3H]CP55,940 binding", "setting": "[2]; amygdala", "value": "62 ± 37", "unit": "fmol/mg t.e."},
      {"measurement": "[3H]CP55,940 binding", "setting": "[2]; cerebellum (gray matter)", "value": "118 ± 22", "unit": "fmol/mg t.e."},
      {"measurement": "[3H]CP55,940 binding", "setting": "[2]; cortex", "value": "65 ± 26", "unit": "fmol/mg t.e."},
      {"measurement": "[3H]CP55,940 binding", "setting": "[2]; globus pallidus", "value": "75 ± 31", "unit": "fmol/mg t.e."},
      {"measurement": "[3H]CP55,940 binding", "setting": "[2]; hippocampus dorsal", "value": "69 ± 29", "unit": "fmol/mg t.e."},
      {"measurement": "[3H]CP55,940 binding", "setting": "[2]; [3]", "value": "82 ± 31", "unit": "fmol/mg t.e."},
      {"measurement": "[3H]CP55,940 binding", "setting": "[2]; striatum", "value": "73 ± 13", "unit": "fmol/mg t.e."},
      {"measurement": "[3H]CP55,940 binding", "setting": "[2]; substantia nigra", "value": "106 ± 118", "unit": "fmol/mg t.e."}
    ]}
  ]
}
